Assay results from US12692529B2, “Quantitative screen for the assessment of inter-individual variability in drug metabolism by the human gut microbiome” (The Trustees of Princeton University, priority 2020, dated 2026).

tested on: ex vivo cultures of donor gut microbiome (BG medium)

Row | MDM in metabolite production across donors | SMILES
1 | variable | CCCCC(C)(O)C/C=C/[C@H]1[C@H](O)CC(=O)[C@@H]1CCCCCCC(=O)OC (mixture of isomers) [misoprostol]
2 | variable | C[C@]12CCC(=O)C=C1CC[C@@H]1[C@@H]2[C@@H](O)C[C@@]2(C)[C@H]1CC[C@]2(O)C(=O)CO [hydrocortisone]

Row | SMILES | MDM in metabolite production across donors
3 | Cc1nc2n(c(=O)c1CCN1CCC(c3noc4cc(F)ccc34)CC1)CCCC2 [risperidone] | consistently positive
